The values below are quoted from earlier work in publication PMC6636548.

This series concerns the target Albumin (Homo sapiens) (UniProt P02768). Put plainly: SPR, acidic pH. Background: SPR reads the build-up and loss of mass on a sensor chip optically.

What is called Kd is the constant that tells how readily two partners part at equilibrium. In the case of FcRn (from UniProt P55899), the Kd is 1000 nM.
